The test deals with T1, Dihydrofolate reductase (Rattus norvegicus, UniProt Q920D2).
T1 sequence (Q920D2 whole entry): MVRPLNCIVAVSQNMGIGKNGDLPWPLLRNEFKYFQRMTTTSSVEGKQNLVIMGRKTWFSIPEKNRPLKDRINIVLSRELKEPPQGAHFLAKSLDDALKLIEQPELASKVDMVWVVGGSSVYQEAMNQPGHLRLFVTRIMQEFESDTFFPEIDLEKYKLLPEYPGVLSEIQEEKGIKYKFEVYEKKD
Nature of the test: Inhibitory activity against dihydrofolate reductase of rat liver.

We go through five molecules from BindingDB's records for doi:10.1021/jm00139a009 (1981).

Usually IC50 stands for the concentration at which inhibition is half-maximal. A higher IC50 goes with lower potency.

Each structure is given as a SMILES string.

Take `Nc1nc(N)c2ccccc2n1` [quinazoline-2,4-diamine]: the IC50 came out at 21900 nM. This counts as double-digit micromolar.

The molecule `Cc1c(NC(=O)Cc2ccc(Cl)cc2)ccc2nc(N)nc(N)c12` displayed a half-inhibitory concentration (IC50) of 33.1 nM.

For `Nc1nc(N)c2cc(CNC(=O)Cc3ccc(Cl)c(Cl)c3)ccc2n1`, it took 1510 nM to reach half-maximal inhibition (IC50).

`N#Cc1ccc2nc(N)nc(N)c2c1` displayed an IC50 of 12000 nM.

`Nc1nc(N)c2c(Cl)c(NC(=O)Cc3ccc(Br)cc3)ccc2n1` registered an IC50 of 12.9 nM.
